# Binding of CDR-mutated scFvs to a peptide of the spike HR2 region

Reference: Engelhart et al. 2022, doi:10.1038/s41597-022-01779-4. File: FLAb, binding data.

All variants were tested on one target, the spike HR2 peptide PDVDLGDISGINAS (SARS-CoV-2).

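The library (AAYL52) carries one to three amino acid substitutions per variant, with no insertions or deletions. In AlphaSeq, yeast of one mating type display the scFv and yeast of the other type display the target. The frequency of each diploid, read from paired DNA barcodes, reflects how well the two displayed proteins bind. Each replicate has its own calibration line, from reference interactions of the BCL2 family. Each pool was mated in three replicate cultures.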

Ab-95 is the parent antibody, in scFv form: VH, then a (GGGGS)3 linker, then VL. The heavy chain is unchanged in all variants.
VH: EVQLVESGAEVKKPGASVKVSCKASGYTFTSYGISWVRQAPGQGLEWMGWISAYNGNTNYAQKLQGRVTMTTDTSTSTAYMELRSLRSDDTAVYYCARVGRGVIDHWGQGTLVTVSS
VL: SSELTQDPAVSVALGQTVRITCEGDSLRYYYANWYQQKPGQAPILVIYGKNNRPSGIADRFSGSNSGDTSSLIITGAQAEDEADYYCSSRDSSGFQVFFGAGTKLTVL

Variants are written as CDR1, CDR2 and CDR3 of the light chain (limits as in the source). Parent: EGDSLRYYYAN, GKNNRPS, SSRDSSGFQVF. All variants listed here change S88 of the VL, counted from its first residue. Kd is apparent (estimated from mating counts) and averaged on the log scale over replicates with a signal. Smaller is tighter. "nd" marks a missing value. The strain was present, yet no cells mated with the target were sequenced in any replicate, which points to weak or no binding. For reference, the parent read 200 nM as the reference entry and 180 nM as a member of this library. Nonspecific signal, from three strains lacking the peptide, appeared in 28% of pairings of library AAYL52, centred on 8.2 µM (5% of these signals below 800 nM); values are not corrected for it. Also given: how often the same scFv was detected with the empty control strains.

* EGDSLRYYYAN, GMNNRPS, TSRDSSGFQVF: 3.3 µM (3 of 3 replicates; controls 5 of 9)
* EGDSLRYYYAL, GKNNRPS, GSRSSSGFQVF: 440 nM (3 of 3 replicates; controls 3 of 9)
* EGDSLREYYAN, GKNNRPS, HSRDSSGFPVF: 170 nM (3 of 3 replicates; controls 2 of 9)
* EGDSLRYYYAN, GKNNRPE, VSRDSSGPQVF: nd (0 of 3 replicates; controls 2 of 9)
* EGDSIRYYAAN, GKNNRPS, LSRDSSGFQVF: 1.2 µM (1 of 3 replicates; controls 2 of 9)
* EGDSLRYYYAN, GKNNRPS, NPRDSSGFQVF: 1.2 µM (1 of 3 replicates; controls 2 of 9)
* EGDSLRYYYMN, GKNMRPS, NSRDSSGFQVF: nd (0 of 3 replicates; controls 0 of 9)
* EGDSLRYYYAN, GKNNRPL, LSRDSGGFQVF: 24 µM (2 of 3 replicates; controls 4 of 9)
* EGDELRYYYAN, GKNNRPS, NSRDSSGFKVF: nd (0 of 3 replicates; controls 2 of 9)
* EGDRLRYYYAN, GKNNRPS, YSRDCSGFQVF: 410 nM (3 of 3 replicates; controls 3 of 9)
* PGTSLRYYYAN, GKNNRPS, ESRDSSGFQVF: 320 nM (1 of 3 replicates; controls 2 of 9)
* EGDSLRYYYLN, GKNNYPS, WSRDSSGFQVF: nd (0 of 3 replicates; controls 1 of 9)
* EGDSLRYYYAR, GKNKRPS, TSRDSSGFQVF: nd (0 of 3 replicates; controls 0 of 9)
* EGDSLRYYYAN, IKNNCPS, GSRDSSGFQVF: nd (0 of 3 replicates; controls 0 of 9)
* EGDSLRYYYAN, GKNNFPS, KSRDSSGFQVF: 44 µM (1 of 3 replicates; controls 2 of 9)
* EGDSLRYYSAN, GKNNRPS, RSVDSSGFQVF: 92 nM (3 of 3 replicates; controls 4 of 9)
* TGDSLRYYYLN, GKNNRPS, ESRDSSGFQVF: 7.6 µM (3 of 3 replicates; controls 3 of 9)
* EGDSLCYYYAN, GKNNRPS, CSRDSSGFQPF: 26 µM (2 of 3 replicates; controls 2 of 9)
* EGDSLRYYYAI, GKNNRPS, DSRDSSAFQVF: 15 µM (2 of 3 replicates; controls 3 of 9)
* EGSSLRYYYAN, GKNGRPS, VSRDSSGFQVF: 680 nM (3 of 3 replicates; controls 4 of 9)
* EGDSLRYYYAN, GKNNHPS, CLRDSSGFQVF: 96 µM (1 of 3 replicates; controls 3 of 9)
* EGDSLRYYQAN, GKNNRPS, YSRDSSGFGVF: nd (0 of 3 replicates; controls 0 of 9)
* EGDSMRYYYAN, GKNNRPS, NSRDSRGFQVF: 5.6 µM (3 of 3 replicates; controls 4 of 9)
* EGDLLRYYYAN, GKNNRPS, GSRVSSGFQVF: 7.2 µM (2 of 3 replicates; controls 3 of 9)
* EGDMLRYYYAN, GKNNRPK, PSRDSSGFQVF: 32 µM (1 of 3 replicates; controls 2 of 9)
* EDDSLRYYYAN, GKNNRPS, ISRDASGFQVF: 46 µM (1 of 3 replicates; controls 1 of 9)
* EGDSLRYYYHN, VKNNRPS, HSRDSSGFQVF: nd (0 of 3 replicates; controls 0 of 9)
* EGDSLRYYYNN, GDNNRPS, ISRDSSGFQVF: 380 nM (3 of 3 replicates; controls 4 of 9)
* EGDSLRYYYAN, GKNNRES, MSRDSEGFQVF: 870 nM (3 of 3 replicates; controls 0 of 9)
* EGDSLRYYYAN, GKNMRPS, HSRDSSGFTVF: nd (0 of 3 replicates; controls 2 of 9)
* EGDSLRVYYAN, GKNNRPH, ISRDSSGFQVF: 3.1 µM (2 of 3 replicates; controls 3 of 9)
* EGGSLRYYYAN, GKNNRPS, PSRDSSGFQVF: 500 nM (2 of 3 replicates; controls 1 of 9)
* EGMSLRYYYAC, GKNNRPS, YSRDSSGFQVF: 10 µM (3 of 3 replicates; controls 4 of 9)
* EGDSLRDYYAN, YKNNRPS, RSRDSSGFQVF: 290 µM (1 of 3 replicates; controls 5 of 9)
* EGDSLRYYYAN, GHNDRPS, WSRDSSGFQVF: 430 nM (3 of 3 replicates; controls 7 of 9)
* EGDSLRYDYAN, GKNNRPS, DSRDSSGSQVF: 1.6 µM (3 of 3 replicates; controls 3 of 9)
* EGDSLRYYYAN, GKNNCPS, TSRNSSGFQVF: 15 µM (1 of 3 replicates; controls 2 of 9)

The closing 5 entries, repeated:

* EGMSLRYYYAC, GKNNRPS, YSRDSSGFQVF = 10 µM (3 of 3 replicates; controls 4 of 9)
* EGDSLRDYYAN, YKNNRPS, RSRDSSGFQVF = 290 µM (1 of 3 replicates; controls 5 of 9)
* EGDSLRYYYAN, GHNDRPS, WSRDSSGFQVF = 430 nM (3 of 3 replicates; controls 7 of 9)
* EGDSLRYDYAN, GKNNRPS, DSRDSSGSQVF = 1.6 µM (3 of 3 replicates; controls 3 of 9)
* EGDSLRYYYAN, GKNNCPS, TSRNSSGFQVF = 15 µM (1 of 3 replicates; controls 2 of 9)